Assay results: US11020462B2, “Methods for treatment of diseases” (SERPIN PHARMA, LLC, priority 2015, dated 2021)
“Also recorded” adds a separate entry of the source.

Protein sequences, listed by entry. Tags and fused reporters are not part of them. Chains listed by the source or under a name are the forms on record and can include a tag or linker. Residues count along the entry.
UniProt Q91ZX7, 20-4545: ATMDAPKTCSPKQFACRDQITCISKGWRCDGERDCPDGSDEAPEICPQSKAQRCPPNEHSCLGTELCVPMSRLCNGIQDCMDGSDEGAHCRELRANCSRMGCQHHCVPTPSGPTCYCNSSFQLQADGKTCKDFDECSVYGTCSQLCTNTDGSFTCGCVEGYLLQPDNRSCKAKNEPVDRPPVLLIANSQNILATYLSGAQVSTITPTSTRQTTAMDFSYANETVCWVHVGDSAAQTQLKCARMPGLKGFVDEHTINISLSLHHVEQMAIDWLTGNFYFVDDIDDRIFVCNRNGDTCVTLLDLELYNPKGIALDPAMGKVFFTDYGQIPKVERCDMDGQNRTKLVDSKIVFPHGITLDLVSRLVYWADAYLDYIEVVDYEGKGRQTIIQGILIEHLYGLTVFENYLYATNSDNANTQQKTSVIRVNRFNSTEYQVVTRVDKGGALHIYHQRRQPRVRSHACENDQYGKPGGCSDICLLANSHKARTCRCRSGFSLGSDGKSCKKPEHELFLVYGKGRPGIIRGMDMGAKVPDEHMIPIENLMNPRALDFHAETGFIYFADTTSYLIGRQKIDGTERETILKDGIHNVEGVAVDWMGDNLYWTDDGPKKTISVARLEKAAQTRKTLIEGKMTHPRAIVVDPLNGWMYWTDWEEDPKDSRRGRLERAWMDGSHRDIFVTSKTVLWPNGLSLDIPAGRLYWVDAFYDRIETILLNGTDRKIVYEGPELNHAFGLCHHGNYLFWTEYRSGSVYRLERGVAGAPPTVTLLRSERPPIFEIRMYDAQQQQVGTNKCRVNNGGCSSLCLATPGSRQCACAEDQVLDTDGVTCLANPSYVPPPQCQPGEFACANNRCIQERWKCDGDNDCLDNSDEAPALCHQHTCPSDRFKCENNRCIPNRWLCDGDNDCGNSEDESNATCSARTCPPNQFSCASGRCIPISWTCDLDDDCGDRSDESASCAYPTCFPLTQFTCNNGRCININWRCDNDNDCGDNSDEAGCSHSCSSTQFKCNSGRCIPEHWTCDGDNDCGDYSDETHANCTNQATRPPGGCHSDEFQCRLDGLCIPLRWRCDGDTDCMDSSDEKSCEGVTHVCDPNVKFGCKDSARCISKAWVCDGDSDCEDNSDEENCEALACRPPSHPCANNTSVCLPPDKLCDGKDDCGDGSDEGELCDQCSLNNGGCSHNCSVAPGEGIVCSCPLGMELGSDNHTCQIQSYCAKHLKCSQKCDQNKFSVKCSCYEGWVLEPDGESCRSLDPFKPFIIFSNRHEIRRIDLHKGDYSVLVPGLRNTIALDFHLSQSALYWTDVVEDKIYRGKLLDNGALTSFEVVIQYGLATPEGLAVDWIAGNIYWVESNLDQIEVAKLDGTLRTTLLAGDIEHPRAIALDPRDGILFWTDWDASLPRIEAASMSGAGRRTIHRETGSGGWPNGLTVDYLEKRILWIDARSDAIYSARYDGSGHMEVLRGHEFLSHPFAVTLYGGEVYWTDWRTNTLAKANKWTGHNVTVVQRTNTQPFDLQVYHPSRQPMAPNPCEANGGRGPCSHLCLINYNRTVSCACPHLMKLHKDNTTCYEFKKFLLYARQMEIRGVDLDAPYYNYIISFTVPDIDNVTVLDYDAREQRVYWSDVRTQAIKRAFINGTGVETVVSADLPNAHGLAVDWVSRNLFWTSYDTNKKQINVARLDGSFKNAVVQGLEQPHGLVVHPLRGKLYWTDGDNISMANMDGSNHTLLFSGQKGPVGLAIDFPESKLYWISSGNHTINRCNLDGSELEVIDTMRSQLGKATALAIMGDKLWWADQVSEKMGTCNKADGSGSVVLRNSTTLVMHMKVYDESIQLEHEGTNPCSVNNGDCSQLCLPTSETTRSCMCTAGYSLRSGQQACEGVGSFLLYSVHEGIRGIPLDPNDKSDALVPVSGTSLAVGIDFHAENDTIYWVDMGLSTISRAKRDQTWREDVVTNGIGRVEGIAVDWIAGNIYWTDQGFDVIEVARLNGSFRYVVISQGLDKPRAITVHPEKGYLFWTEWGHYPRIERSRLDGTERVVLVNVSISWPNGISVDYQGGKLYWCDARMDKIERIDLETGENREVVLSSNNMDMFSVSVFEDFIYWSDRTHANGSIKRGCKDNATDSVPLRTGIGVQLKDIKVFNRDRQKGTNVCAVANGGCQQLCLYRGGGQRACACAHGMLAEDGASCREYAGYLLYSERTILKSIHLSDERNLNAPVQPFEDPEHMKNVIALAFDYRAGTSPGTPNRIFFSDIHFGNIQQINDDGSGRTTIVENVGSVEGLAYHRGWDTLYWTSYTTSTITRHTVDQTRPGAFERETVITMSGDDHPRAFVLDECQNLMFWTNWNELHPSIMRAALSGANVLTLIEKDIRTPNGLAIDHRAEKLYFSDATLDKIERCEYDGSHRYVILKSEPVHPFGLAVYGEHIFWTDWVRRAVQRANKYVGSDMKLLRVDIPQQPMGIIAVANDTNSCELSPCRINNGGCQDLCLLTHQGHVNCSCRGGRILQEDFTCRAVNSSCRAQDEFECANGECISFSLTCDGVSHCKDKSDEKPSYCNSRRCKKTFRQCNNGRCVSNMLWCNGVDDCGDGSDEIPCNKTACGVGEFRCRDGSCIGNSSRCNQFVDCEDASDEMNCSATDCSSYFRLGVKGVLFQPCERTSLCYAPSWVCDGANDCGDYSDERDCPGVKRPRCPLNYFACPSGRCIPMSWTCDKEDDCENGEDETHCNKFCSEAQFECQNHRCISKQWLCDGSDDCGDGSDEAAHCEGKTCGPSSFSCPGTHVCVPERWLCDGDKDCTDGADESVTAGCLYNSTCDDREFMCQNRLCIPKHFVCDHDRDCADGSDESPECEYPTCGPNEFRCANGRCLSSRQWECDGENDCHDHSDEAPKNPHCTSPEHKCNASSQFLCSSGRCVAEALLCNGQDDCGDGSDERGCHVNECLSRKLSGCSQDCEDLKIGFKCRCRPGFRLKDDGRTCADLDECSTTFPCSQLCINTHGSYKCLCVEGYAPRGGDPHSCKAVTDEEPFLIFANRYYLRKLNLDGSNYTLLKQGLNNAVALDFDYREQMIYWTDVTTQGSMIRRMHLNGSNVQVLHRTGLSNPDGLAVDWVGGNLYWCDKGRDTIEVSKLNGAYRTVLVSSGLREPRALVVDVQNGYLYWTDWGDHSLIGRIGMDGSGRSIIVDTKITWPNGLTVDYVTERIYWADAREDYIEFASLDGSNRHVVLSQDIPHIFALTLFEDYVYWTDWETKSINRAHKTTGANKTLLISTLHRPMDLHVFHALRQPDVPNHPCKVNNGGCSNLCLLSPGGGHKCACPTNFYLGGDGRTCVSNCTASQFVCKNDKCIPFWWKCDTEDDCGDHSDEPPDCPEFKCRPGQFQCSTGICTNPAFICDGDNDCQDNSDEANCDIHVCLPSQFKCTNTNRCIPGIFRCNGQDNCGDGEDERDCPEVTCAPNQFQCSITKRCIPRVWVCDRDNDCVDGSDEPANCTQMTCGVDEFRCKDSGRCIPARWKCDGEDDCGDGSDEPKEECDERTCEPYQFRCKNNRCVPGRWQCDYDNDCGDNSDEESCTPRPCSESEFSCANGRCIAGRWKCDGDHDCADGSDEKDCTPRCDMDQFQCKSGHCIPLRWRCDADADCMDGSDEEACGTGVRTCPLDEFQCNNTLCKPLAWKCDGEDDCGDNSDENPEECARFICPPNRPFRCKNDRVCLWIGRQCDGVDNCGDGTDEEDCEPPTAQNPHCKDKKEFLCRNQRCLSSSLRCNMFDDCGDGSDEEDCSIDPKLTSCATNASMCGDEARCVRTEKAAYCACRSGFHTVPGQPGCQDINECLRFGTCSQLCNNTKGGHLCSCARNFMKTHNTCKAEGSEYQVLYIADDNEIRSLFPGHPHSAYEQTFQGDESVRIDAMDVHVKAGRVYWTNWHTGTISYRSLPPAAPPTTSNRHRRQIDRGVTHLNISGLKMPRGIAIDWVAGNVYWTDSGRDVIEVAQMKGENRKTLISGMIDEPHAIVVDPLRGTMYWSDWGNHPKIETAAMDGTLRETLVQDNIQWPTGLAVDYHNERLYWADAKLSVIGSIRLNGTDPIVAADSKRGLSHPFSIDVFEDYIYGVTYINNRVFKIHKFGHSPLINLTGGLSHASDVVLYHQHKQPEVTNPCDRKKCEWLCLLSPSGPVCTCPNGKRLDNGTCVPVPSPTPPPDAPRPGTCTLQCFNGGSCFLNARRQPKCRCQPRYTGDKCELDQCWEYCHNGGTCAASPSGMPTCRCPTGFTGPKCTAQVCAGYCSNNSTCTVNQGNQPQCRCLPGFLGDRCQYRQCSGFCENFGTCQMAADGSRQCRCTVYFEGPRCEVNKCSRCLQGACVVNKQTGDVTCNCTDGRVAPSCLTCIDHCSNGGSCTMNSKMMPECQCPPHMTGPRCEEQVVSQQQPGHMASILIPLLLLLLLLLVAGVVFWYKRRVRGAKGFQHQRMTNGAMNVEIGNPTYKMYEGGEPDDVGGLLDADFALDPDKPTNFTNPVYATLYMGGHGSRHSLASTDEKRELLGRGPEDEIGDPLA
UniProt Q07954, with tags, fused parts or gaps limits assumed, species assumed: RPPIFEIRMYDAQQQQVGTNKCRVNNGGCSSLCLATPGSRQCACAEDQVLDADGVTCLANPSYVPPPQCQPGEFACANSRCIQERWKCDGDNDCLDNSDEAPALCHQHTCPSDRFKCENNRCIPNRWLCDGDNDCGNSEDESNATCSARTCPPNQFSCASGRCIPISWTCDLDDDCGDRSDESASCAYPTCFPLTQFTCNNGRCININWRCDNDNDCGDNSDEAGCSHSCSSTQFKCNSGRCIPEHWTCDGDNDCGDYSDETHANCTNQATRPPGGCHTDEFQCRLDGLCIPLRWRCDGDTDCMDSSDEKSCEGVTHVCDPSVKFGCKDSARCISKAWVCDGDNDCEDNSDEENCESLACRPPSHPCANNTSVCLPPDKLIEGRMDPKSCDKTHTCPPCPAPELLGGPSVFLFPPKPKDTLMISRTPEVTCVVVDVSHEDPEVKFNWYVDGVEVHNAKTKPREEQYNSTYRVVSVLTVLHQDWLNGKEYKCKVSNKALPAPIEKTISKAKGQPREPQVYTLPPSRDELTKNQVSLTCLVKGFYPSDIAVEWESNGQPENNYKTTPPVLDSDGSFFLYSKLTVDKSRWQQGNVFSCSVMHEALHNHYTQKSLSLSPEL

Tests used:
LRP1 = molecular target: T1, LRP1 (Mus musculus, UniProt Q91ZX7); assay: experimental AMI in mice pretreated with LRP1 blocking antibody; type: in vivo; conditions: LRP1 antibody clone 5A6 3 mg/kg 16 hours before surgery; SP163M 100 μg or AAT 60 mg/kg i.p. after reperfusion, FIG. 14
T1 construct: from tissue; host or cells: living CD1 mice (heart, in vivo)
Description: To examine the whether LRP1 mediates the cardioprotective effect of SP163M, groups of mice were treated with an LRP1 blocking antibody prior to experimental AMI. The resulting infarct size and LV systolic function were measured
Adult out-bred male CD1 mice (10 weeks of age) supplied by Harlan Sprague Dawley (Indianapolis, Ind.) were used in this study. A single operator (S.T.) skilled in coronary artery surgical ligation in mice performed all surgeries. Experimental AMI was induced by transient coronary artery ligation of the left anterior descending coronary artery for 30 minutes to induce ischemia of the anterior wall and the apex (visible as pallor) followed by reperfusion, and leading to an infarct involving approximately 15% of the left ventricle. […]
Infarct size (reported in FIG. 14A) was measured as previously described. […] The infarcted tissue (appearing white) and the viable tissue (bright red) were measured by computer morphometry using Image Pro Plus 6.0 software (Media Cybernetics, Silver Spring, Md.). […]
LV systolic function (reported in FIG. 14B) was determined as well. […] We measured the left ventricular (LV) end-diastolic and end-systolic areas at B-Mode and the LV end-diastolic diameter (LVEDD), LV end-systolic diameters (LVESD) at M-Mode. LV fractional shortening (FS) and LV ejection fraction (EF) were calculated. […]

[1] = system: LRP1 on Raw264.7 murine macrophages; assay: LRP1 expression on Raw264.7 murine macrophages by flow cytometry; type: cell-based; conditions: 50, 100 or 200 ug/ml for 3 hrs, FIG. 10
Description: Macrophages were plated 0.2×10^6 in a 24 well plate and grown to 70% confluence. Cells were treated with vehicle (red), SP16 at 50 (Purple), 100 (Green) or 200 ug/ml (Blue), scrambled control (Orange) or COG133 (ApoE peptide) (Pink) for 3 hrs before harvesting with cold PBS 5 mM EDTA. Samples were labeled with anti-LRP1 (abeam ab92544) and stained with Alexa FluorTM 488 rabbit secondary (invitrogen) and then analyzed by flow cytometry (Guava EasyCyteTM flow cytometer). The mean fluorescent intensity (MFI) normalized to the control is shown. (For each sample >10,000 events were collected).

[2] = system: NF-kB signaling in THP1-XBlue-MD2-CD14 cells; assay: NF-kB inducible SEAP reporter assay in THP1-XBlue-MD2-CD14 cells; type: cell-based
Description: THP1-XBlue™-MD2-CD14 cells (InvivoGen, San Diego, Calif.) were used in an in vitro assay to examine whether SP163M is an agonist of LRP. The THP1-XBlue™-MD2-CD14 cells were maintained in RPMI 1640 medium (Thermo Scientific) supplemented with 10% heat inactivated FBS, 1% Pen-Strep, 100 ug/ml Normocin™, 200 ug/ml Zeocin™, and 250 μg/ml of G418. The cell lines were maintained in 5% C02 at 37° C. and in accordance with the distributor's guidelines.
The THP1-XBlue™-MD2-CD14 cells were seeded at 1×10^5 cells/well in a 96-well cell culture plate. The cells were treated with peptide or a scrambled control peptide (100 μg/ml), for 30 minutes prior to the addition of LPS (5 ng/ml) or GP96 (100 μM). After an 18-24 hour incubation at 37° C., 20 μl of supernatant was transferred to 180 μl of QUANTI-Blue™ SEAP detection medium. NF-κB inducible SEAP levels were detected by measuring the absorbance. In experiments blocking LRP1, the anti-LRP1 antibody (125 μg/ml) (clone 5A6, Molecular Innovations, Novi, Mich.) or Receptor-Associated Protein (RAP) (1 μM) (Molecular Innovations) were used 30 minutes prior to the addition of the peptide.

healthy mouse = assay: cardiac contractility in the healthy mouse (echocardiography, isoproterenol challenge); type: in vivo
Description: To test the effect of SP163M on heart contractility the following study was conducted. […] SP34 is a peptide with a scrambled sequence of SP16 and is used as a control peptide.
Ten-weeks-old ICR mice were treated with SP163M (100 μg/mouse i.p.), the control peptide SP34 (100 μg/mouse) or the vehicle solution. Echocardiography was used to assess left ventricular (LV) fractional shortening at baseline and after 180 minutes.
Cardiac contractility reserve was tested with isoproterenol challenge (10 ng/kg i.p.), measuring the increase in LV fractional shortening within 5′ of treatment. Each group included at least 6 mice.

[3] = system: experimental acute myocardial infarction (AMI) in the mouse; assay: experimental acute myocardial infarction in the mouse: coronary artery ligation 30 minutes, then reperfusion; type: in vivo
Description: In order to examine the effects of SP163M in AMI, the peptide was tested in the same mouse model previously used for AAT. Briefly, adult male ICR mice underwent coronary artery ligation inducing myocardial ischemia for 30 minutes followed by reperfusion. SP16 at 100 μg dose or matching volume of NaCl 0.9% solution was given at time of reperfusion.
Ten-weeks-old male ICR (CD1) mice underwent surgical coronary artery ligation for 30 minutes, followed by reperfusion for 24 hours, to simulate the scenario of acute myocardial infarction (AMI) treated with reperfusion therapies. A subgroup of mice underwent sham surgery in which the coronary artery was identified and isolated but not ligated.
SP163M—active peptide- or a control solution—vehicle—were administered at a dose of 100 μg/mouse i.p. at reperfusion
Infarct size was measured at pathology with triphenyltetrazolium chloride(TTC)/Evans blue staining, and by measuring plasma troponin I levels at 24 hours. Evans blue was retrogradely injected through the aorta after re-ligation of the coronary artery knot to identify the non-risk myocardium (blue). TTC was used to stain viable myocardium (red).
Echocardiography was used to assess left ventricular (LV) fractional shortening, as a measure of systolic function in vivo.
Ten-weeks-old male ICR (CD1) mice underwent surgical coronary artery ligation for 30 minutes, followed by reperfusion for 24 hours, to simulate the scenario of AMI treated with reperfusion therapies.
SP163M—active peptide- or SP34—control peptide—were administered at a dose of 100 μg/mouse i.p. at the moment of the reperfusion or with 30′ of delay, to simulate a clinical scenario in which a delay between reperfusion and pharmacologic therapy is likely to occur.
Infarct size was measured with TTC/Evans blue staining. Echocardiography was used to assess left ventricular (LV) fractional shortening, as a measure of systolic function in vivo. Each group included at least 6 mice.
Ten-weeks-old ICR mice underwent surgical coronary artery ligation for 30 minutes, followed by reperfusion for 24 hours. SP16 was administered at 2 different doses (10 or 100 ug) with 30′ of delay. The control peptide SP34 (100 μg) or the vehicle solution were used as controls.
Infarct size was measured with TTC/Evans blue staining. Transthoracic echocardiography was used to assess left ventricular (LV) fractional shortening. Each group included at least 6 mice.

recombinant LRP1 protein = molecular target: T2, recombinant LRP1 protein (Homo sapiens, UniProt Q07954); assay: in vitro binding of biotin-peptide to recombinant LRP1 (streptavidin bead pull-down, western blot)
T2 construct: purchased R&D Systems, Minneapolis, Minn
Description: An in vitro assay was performed to examine SP163M binding to LRP1. To perform the assay, recombinant LRP1 protein (1 μg/ml) (R&D Systems, Minneapolis, Minn.) was incubated on ice in the presence of biotin-SP163M (1-5 μg/ml) at 4° C. for 1 hour. This mixture was then incubated with 1 mg/ml M280 Streptavidin Dynabeads (Invitrogen, Carlsbad, Calif.) for 1.5 hours at 4° C. Dynabeads were washed in PBS+0.1% Tween20 and boiled in SDS loading buffer for 5 minutes. The supernatants were separated on NuPAGE 4-12% Bis-Tris gels (Invitrogen) and transferred to nitrocellulose membranes. The membranes were probed with anti-LRP1 (LRP-1 Cluster II Affinity Purified Polyclonal Ab, R&D, Minneapolis, Minn.) and incubated overnight at 4° C. The membranes were then washed 3 times with TBS-T and incubated with secondary HRP-coupled anti-goat diluted 1:10,000 in 5% milk TBS-T. The western blots were visualized by chemiluminescence using SuperSignal West Femto Maximum Sensitivity Substrate kit (ThermoScientific) and a Bio Rad Molecular Imager ChemiDoc XRS system (Bio-Rad, Hercules, Calif.).

Q: Which “protective effects (infarct size, LV systolic function) after LRP1 blocking antibody” value (LRP1) does the source give for `CCCC[C@H](NC(=O)[C@H](CC(C)C)NC(=O)[C@H](Cc1ccccc1)NC(=O)[C@@H](NC(=O)[C@H](Cc1ccccc1)NC(=O)[C@@H]1CCCN1C(=O)[C@H](CCCCN)NC(=O)[C@H](CC(N)=O)NC(=O)[C@H](Cc1ccccc1)NC(=O)[C@H](CCCCN)NC(=O)[C@@H](NC(C)=O)C(C)C)C(C)C)C(=O)N[C@H](C(=O)N[C@@H](CCC(=O)O)C(=O)N[C@@H](CCC(N)=O)C(=O)N[C@@H](CC(N)=O)C(=O)N[C@H](C(=O)N[C@@H](CCCCN)C(N)=O)[C@@H](C)O)[C@@H](C)CC` [SP163M] here?
A: eliminates the cardioprotective effects; also recorded: eliminated the protective effects

Q: What about the “expression of LRP1 (mean fluorescent intensity), dose-dependent” value [1] of the same molecule?
A: increase expression of LRP1

Q: And the LRP1 agonism [2]?
A: agonist

Q: And the “cardiac systolic function at rest (LV fractional shortening)” value (healthy mouse; 100 μg/mouse i.p., baseline and after 180 minutes, FIG. 7 left panel)?
A: does not alter cardiac systolic function

Q: What about the “cardiac systolic function after isoproterenol challenge (contractile reserve)” value (healthy mouse; 100 μg/mouse i.p., isoproterenol 10 ng/kg i.p., FIG. 7 right panel) of the same molecule?
A: does not alter cardiac systolic function

Q: And the heart contractility (healthy mouse; FIG. 7)?
A: not effect heart contractility; also recorded: does not affect heart contractility

Q: What about the “efficacy as measured by infarct size” value ([3]; 10 μg dose (dose reduced by 90%), FIG. 6A) of the same molecule?
A: effective

Q: And the “efficacy as measured by LV systolic function” value ([3]; 10 μg dose (dose reduced by 90%), FIG. 6B)?
A: effective

Q: And the “plasma levels of cardiac specific troponin I” value ([3]; 100 μg/mouse i.p. at reperfusion, 24 hours, FIG. 4B)?
A: significantly reduced; also recorded: reducing plasma levels of cardiac specific troponin I

Q: And the “myocardial infarct size (in words)” value ([3]; 100 μg/mouse i.p. at reperfusion, FIG. 4A)?
A: reducing myocardial infarct size

Q: And the “left ventricular systolic function (LV fractional shortening, echocardiography)” value ([3]; 100 μg/mouse i.p. at reperfusion, FIG. 4C)?
A: preserving the left ventricular systolic function

Q: What about the infarct size ([3]; 100 μg/mouse i.p. with 30′ of delay after reperfusion, FIG. 5A) of the same molecule?
A: significantly reduced infarct size

Q: And the LV fractional shortening ([3]; 100 μg/mouse i.p. with 30′ of delay after reperfusion, FIG. 5B)?
A: preservation of LV fractional shortening

Q: What about the “infarct size, in a dose-dependent fashion” value ([3]; 10 or 100 μg with 30′ of delay, FIG. 6A) of the same molecule?
A: reduces infarct size

Q: And the “LV fractional shortening, in a dose-dependent fashion” value ([3]; 10 or 100 μg with 30′ of delay, FIG. 6B)?
A: preserves LV fractional shortening

Q: What about the “infarct size in the AMI model (general statement)” value ([3]; mouse AMI model, dose not given at the place) of the same molecule?
A: reduces the size of the infarct

Q: And the “anti-inflammatory activity compared with AAT” value ([3]; preclinical models of AMI)?
A: equal or better anti-inflammatory activity

Q: And the “binding to LRP1 (statement without method)” value (recombinant LRP1 protein)?
A: bind LRP1

Q: And the “binding to LRP1” value (recombinant LRP1 protein; biotin-peptide 1-5 μg/ml, LRP1 1 μg/ml, FIG. 12B)?
A: binds to LRP1
